Here are results for one compound from ChEMBL document CHEMBL4834473, “Novel hydroxybenzylamine-deoxyvasicinone hybrids as anticholinesterase therapeutics for Alzheimer's disease” (Bioorg Med Chem, 2021).

The test can be described thus: Selectivity index, ratio of IC50 for equine serum BChE to IC50 for electric eel AChE.

In the case of `O=c1c2ccccc2nc2n1CCC2` [DEOXYVASICINONE], the Ratio IC50 came to 1.04.
